Source: patent publication US20060251751A1, “Sophoridine and its use as an analgesic” (SHANGHAI FANGDA PHARMACEUTICALS, LTD., priority 2001, published 2006)

Tested on: mice
Test: Comparison of analgesic effects and synergistic activity between sophoridine and morphine (hot plate method)
Conditions: morphine hydrochloride 10 mg/kg orally

For CN1CC[C@]23c4c5ccc(O)c4O[C@H]2[C@@H](O)C=C[C@H]3[C@H]1C5.Cl [Morphine, morphine hydrochloride], the “Pain thresholds after admin. (seconds) 15 min.” value (15 min.) was 35.1 ± 15.5 s, the “Pain thresholds after admin. (seconds) 30 min.” value (30 min.) was 44.8 ± 14.6 s and the “Pain thresholds after admin. (seconds) 60 min.” value (60 min.) was 32.4 ± 16.2 s. For the same molecule, the “Pain thresholds before admin.” value (before admin. (baseline)) was 19.7 ± 4.4 s.
